For 1 compound, IC50 and Ratio IC50 results are on record in ChEMBL document CHEMBL2163209, “Selective dual inhibitors of CYP19 and CYP11B2: targeting cardiovascular diseases hiding in the shadow of breast cancer” (J Med Chem, 2012).

The target in assay [1] is T1, Cytochrome P450 11B2, mitochondrial (Homo sapiens, UniProt P19099).
T1 sequence (P19099 whole entry): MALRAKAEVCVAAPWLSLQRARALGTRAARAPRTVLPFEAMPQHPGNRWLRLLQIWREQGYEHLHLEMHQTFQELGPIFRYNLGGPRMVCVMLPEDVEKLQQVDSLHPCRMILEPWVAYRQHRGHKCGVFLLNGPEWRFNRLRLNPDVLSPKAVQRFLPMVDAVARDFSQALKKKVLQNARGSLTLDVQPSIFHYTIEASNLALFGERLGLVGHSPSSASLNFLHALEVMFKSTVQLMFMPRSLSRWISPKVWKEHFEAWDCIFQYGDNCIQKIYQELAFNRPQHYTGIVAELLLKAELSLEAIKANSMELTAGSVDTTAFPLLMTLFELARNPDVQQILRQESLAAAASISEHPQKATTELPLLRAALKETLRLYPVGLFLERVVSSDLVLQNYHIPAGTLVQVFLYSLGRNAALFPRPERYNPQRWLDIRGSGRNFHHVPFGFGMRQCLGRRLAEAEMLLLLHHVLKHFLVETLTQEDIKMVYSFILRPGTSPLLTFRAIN
As to the kind of experiment: Inhibition of human CYP11B2 expressed in V79MZh cells using [14C]-11-deoxycorticosterone as substrate by HPTLC/phosphoimaging method. The assay is classed as cell-based.

The test system of assay [2] is V79MZh. Put plainly: Selectivity factor, ratio of IC50 for human CYP11B1 to IC50 for human CYP11B2 expressed in V79MZh cells. The assay is classed as cell-based.

In general, IC50 refers to the point on the concentration scale where inhibition reaches its midpoint. Low readings indicate greater potency, high ones weaker potency. Turning to `CCOc1cc2c(cc1-c1cccnc1)CCC(=O)N2`, in assay [1], the midpoint of inhibition, the IC50, lay at 674 nM. Moreover, the Ratio IC50 in assay [2] stood at 5.5.
